Assay outcomes from PubChem.
PDI turbidity: inhibitors of human protein disulfide isomerase | inhibition, % at 10 µM | 350,000 tested, 0.052% active | AID 588391 | PDI insulin aggregation turbidity, A650, 90 min;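 active = mean inhibition across replicates of 30% or more, whatever share of single replicates reach that level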
ERp5 block: ERp5 (human) disulfide isomerase inhibition. ERp5 insulin aggregation, absorbance 650 nm, 90 min. inhibition, % at 9.99 µM. 350,000 tested, 0.05% active. AID 651711;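 active = mean replicate inhibition above about 25%, with every replicate also reaching it, limit read from the data, passing the limit was not always enough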
SMARCA2 activ: increases SMARCA2 function in MMTV reporter cells; MG213 cells, MMTV-luciferase reporter, dexamethasone, overnight; activation, % at 9.1 µM; 370,000 tested, 1% active; AID 652017; in the data active = activation above about 7.8%
Rev-erbA mod: modulates human Rev-erb alpha binding to DNA; 370,000 tested, 0.79% active; AID 1259318; activity, % at 10 µM; Rev-erbα–FITC-DNA binding, fluorescence polarization, 90 min;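 active = activity above about 14%, limit read from the data; passing the limit was not always enough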
UUG fidelity: modulators of yeast start codon fidelity, primary screen, whole organism, S. cerevisiae, single point, plate reader; S. cerevisiae UUG-firefly luciferase reporter, luminescence/redox ratio; activity score, % at 18.7 µM; actives 0.13% (n = 350,000); AID 602363, 2012;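 active = replicate mean at a twofold rise or more, about +100% in these data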;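 also: firefly luciferase made from a UUG start codon reports start codon fidelity; reporter light over untreated wells divided by growth signal over untreated wells; some hits fall short of that in this replicate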
INS-1E GSIS act: GLuc luminescence reporter in INS-1E cells, primary screen for activators of glucose-dependent secretion of insulin; INS-1E GLuc reporter insulin secretion, 2-3 h; activation, % at 16.6 µM; 370,000 tested, 0.61% active; AID 743287;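 active = lowest replicate activation of at least 40%, so every replicate reaches that level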
Of the large screens only hits and unclear results are named; the others gave an inactive call. This is a sample that favours compounds with a hit; in the whole collection about 2.1% have one here.

Cc1ccc(C2=NN(S(=O)(=O)c3ccccc3)C(c3ccco3)C2)cc1 (stereo not drawn)	none (no result: INS-1E GSIS act)
CC(C)CC(NC(=O)c1ccc(Cl)cc1)C(=O)OCC(=O)c1ccc2c(c1)NC(=O)CO2 (stereo not drawn)	INS-1E GSIS act 461 (no result: ERp5 block)
C[C@@H]1CN([C@H](C)CO)C(=O)Cc2cc(NS(=O)(=O)c3ccc(F)cc3)ccc2O[C@@H]1CN(C)S(=O)(=O)c1cn(C)cn1	ERp5 block 27 (no result: PDI turbidity, SMARCA2 activ, Rev-erbA mod)
C[C@@H]1CN([C@H](C)CO)C(=O)Cc2cc(NC(=O)c3ccncc3)ccc2O[C@H]1CN(C)S(=O)(=O)c1cn(C)cn1	ERp5 block 77 (no result: PDI turbidity, SMARCA2 activ, Rev-erbA mod)
O=C[C@H](O)[C@H]1OC(=O)[C@@H](O)[C@H]1O	none (no result: PDI turbidity, ERp5 block, SMARCA2 activ, UUG fidelity, INS-1E GSIS act)
COc1ccccc1S(=O)(=O)N[C@H]1CC[C@@H](CCNC(=O)C2CCC2)O[C@@H]1CO	none (no result: PDI turbidity, SMARCA2 activ, Rev-erbA mod)
COC1=CC(=O)C(OC)=C(OC)C1=O	INS-1E GSIS act 44
C[C@H]1CCCCO[C@H](CN(C)Cc2ccc(C(=O)O)cc2)[C@@H](C)CN([C@@H](C)CO)C(=O)c2cc(NC(=O)Nc3ccc(F)cc3)ccc2O1	none (no result: PDI turbidity, SMARCA2 activ, Rev-erbA mod)
CCCCCCCCCCCCCCCC[N+](C)(C)Cc1ccc(F)cc1	PDI turbidity 41 (no result: UUG fidelity, INS-1E GSIS act)
O=c1[nH]c(=S)[nH]c2c1C(c1ccc(Cl)c(Cl)c1)OC(CCc1ccccc1)C2 (stereo not drawn)	none (no result: PDI turbidity, UUG fidelity)
O=c1[nH][nH]c2c1C(c1ccc(Cl)c(Cl)c1)OC(CCc1ccccc1)C2 (stereo not drawn)	INS-1E GSIS act 56 (no result: PDI turbidity, UUG fidelity)
C[C@H](CO)N1C[C@H](C)[C@H](CN(C)Cc2ccncc2)Oc2ncc(C3=CCCCC3)cc2C1=O	none (no result: PDI turbidity, SMARCA2 activ, Rev-erbA mod)
CN1C(=O)c2cc(NC(=O)C3CCCCC3)ccc2OC[C@H]2O[C@H](CC(=O)NC3CCCC3)CC[C@@H]21	none (no result: PDI turbidity, ERp5 block, SMARCA2 activ, Rev-erbA mod, UUG fidelity)
CN1C(=O)c2cc(NC(=O)C3CCCCC3)ccc2OC[C@@H]2O[C@@H](CC(=O)NC3CCCC3)CC[C@H]21	ERp5 block 31 (no result: PDI turbidity, SMARCA2 activ, Rev-erbA mod)
CCC(=O)Nc1ccc2c(c1)C(=O)N(C)[C@@H]1CC[C@@H](CC(=O)NCC3CC3)O[C@@H]1CO2	ERp5 block 48 (no result: PDI turbidity, SMARCA2 activ, Rev-erbA mod)
CCC(=O)Nc1ccc2c(c1)C(=O)N(C)[C@H]1CC[C@H](CC(=O)NCC3CCCCC3)O[C@@H]1CO2	none (no result: PDI turbidity, SMARCA2 activ, Rev-erbA mod)
CCC(=O)Nc1ccc2c(c1)C(=O)N(C)[C@@H]1CC[C@H](CC(=O)NCC3CCCCC3)O[C@H]1CO2	none (no result: PDI turbidity, SMARCA2 activ, Rev-erbA mod)
CCC(=O)Nc1ccc2c(c1)C(=O)N(C)[C@H]1CC[C@@H](CC(=O)NCC3CC3)O[C@@H]1CO2	ERp5 block 78 (no result: PDI turbidity, SMARCA2 activ, Rev-erbA mod)
CO[C@H]1CN(C)C(=O)c2ccc(NS(=O)(=O)c3ccccc3C)cc2OC[C@H](C)N(C)C[C@@H]1C	none (no result: PDI turbidity, SMARCA2 activ, Rev-erbA mod, UUG fidelity)
C[C@@H]1CN([C@@H](C)CO)C(=O)c2c(c3ccccc3n2C)-c2ccccc2CO[C@@H]1CN(C)Cc1ccc(C(=O)O)cc1	none (no result: PDI turbidity, SMARCA2 activ, Rev-erbA mod)
O=S(=O)(NCc1csc(-c2cccs2)n1)c1ccc(Cl)cc1	none
Cc1ccc(S(=O)(=O)NCc2csc(-c3cccs3)n2)cc1	INS-1E GSIS act 48 (no result: UUG fidelity)
CC(C)(C(=O)N1CCC1(C)C(=O)NS(=O)(=O)c1cccc(Cl)c1)c1ccccc1 (stereo not drawn)	INS-1E GSIS act 41
COc1ccc(NC(=O)CSc2nnc(NC(=O)C3CC3)s2)cc1OC	ERp5 block 26
CC(C)(C)NC(=O)CSc1nnc(NC(=O)c2ccccc2Cl)s1	none (no result: UUG fidelity)
COc1ccc(NC(=O)COC(=O)CNC(=O)C2CCCCC2)cc1OC	INS-1E GSIS act 59
O=C(CSc1nnc(NC(=O)c2ccccc2Cl)s1)Nc1ccc2c(c1)oc1ccccc12	SMARCA2 activ 11 (no result: PDI turbidity, ERp5 block, UUG fidelity)
COc1ccccc1Nc1nnc(SCC(=O)NC(=O)Nc2ccc3c(c2)OCCO3)s1	INS-1E GSIS act 81 (no result: ERp5 block, UUG fidelity)
CC(=O)Nc1ccc(NC(=O)CSc2nnc(NC(=O)C3CC3)s2)cc1	none
CCOC(=O)c1cc(NC(=O)c2cnccn2)cc(C(=O)OCC)c1	INS-1E GSIS act 86 (no result: ERp5 block)
CCOC(=O)c1cccc(NC(=O)c2cnccn2)c1	none (no result: ERp5 block, INS-1E GSIS act)
CC1=C(C(=O)O)N2C(=O)[C@@H](NC(=O)[C@H](N)C3=CCC=CC3)[C@@H]2SC1	none (no result: PDI turbidity, ERp5 block, SMARCA2 activ, UUG fidelity, INS-1E GSIS act)
CCN1CCN(Cc2ccc(NC(=O)c3cccc(-c4ccc5nc(NC(=O)C6CC6)sc5n4)c3)cc2C(F)(F)F)CC1	INS-1E GSIS act 143 (no result: PDI turbidity, UUG fidelity)
CCOc1ccc(/C=N/NC(=O)c2cc(-c3ccco3)nc3ccccc23)cc1	INS-1E GSIS act 69 (no result: ERp5 block, UUG fidelity)
CCCNC(=O)N(C)C[C@H]1Oc2ncc(-c3ccc(F)cc3)cc2C(=O)N([C@H](C)CO)C[C@@H]1C	none (no result: PDI turbidity, SMARCA2 activ, Rev-erbA mod)
O=C(N[C@@H]1CC[C@@H](CCn2cc(Cc3ccccc3)nn2)O[C@@H]1CO)c1cnccn1	none (no result: PDI turbidity, SMARCA2 activ, Rev-erbA mod)
CCn1ccc(C(=O)Nc2ccccc2SC)n1	INS-1E GSIS act 41 (no result: UUG fidelity)
CCn1ccc(C(=O)Nc2ccc(N(C)C(C)=O)cc2)n1	none (no result: ERp5 block)
COc1ccc2c3c(n(C)c2c1)[C@@H](CO)N(C(=O)NC(C)C)CC31CCN(CC2CCCCC2)CC1	none (no result: PDI turbidity, SMARCA2 activ, Rev-erbA mod, UUG fidelity)
Cn1c(COc2ccccc2O)[n+](C)c2ccccc21	none
CCCCCCCCCCOC(=O)Cn1c(COc2ccccc2OC)[n+](C)c2ccccc21	INS-1E GSIS act 179
COC(=O)c1ccc2c(=O)[nH]c(CSc3nc(C)cs3)nc2c1	none
COC(=O)c1ccc2c(=O)[nH]c(CSc3nc(-c4ccc(F)cc4)cs3)nc2c1	INS-1E GSIS act 58 (no result: ERp5 block, UUG fidelity)
NNC(=O)c1cc(-c2ccc(O)cc2)nc2ccc(Br)cc12	PDI turbidity 40
